The numbers were not newly measured in paper PMC9230956, which cites them from elsewhere.

Sequences of proteins named here, by UniProt entry; tags and fusion partners are left off. Residues count along the entry.
UniProt P19235, 25-250: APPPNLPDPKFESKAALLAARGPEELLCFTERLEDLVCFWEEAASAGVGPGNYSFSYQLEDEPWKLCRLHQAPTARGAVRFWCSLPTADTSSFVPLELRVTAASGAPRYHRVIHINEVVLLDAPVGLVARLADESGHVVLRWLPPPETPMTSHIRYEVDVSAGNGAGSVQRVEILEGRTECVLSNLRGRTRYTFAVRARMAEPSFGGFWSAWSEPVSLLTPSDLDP

The target of the series is EPOR (Homo sapiens) (UniProt P19235). Nature of the series: magnetic modulation biosensing.

One may read the Kd as the concentration at which binding is half-saturated. For EPO (from UniProt P01588), the Kd is 1.4 nM.
